# SIRT5 block – inhibitors of human sirtuin-5 desuccinylase; Purified SirT5, succinyl-peptide AMC, trypsin-coupled fluorescence; inhibition, % at 15 µM; 1.1% of 330,000 active; AID 652115; in the data active = inhibition above about 15%; inconclusive = no clear call, values can overlap the other calls
# E-selectin induc – E-selectin induction on HUVECs; 0.37% of 260,000 active; HUVEC E-selectin immunofluorescence imaging; normalized: neutral wells 0, TNF-alpha wells 100; activation, % at 7.58 µM; P16581;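 active = mean E-selectin-positive cell signal at least 10% of the positive control, reached in at least 60% of replicates, without over 20% cell loss; inconclusive = no rule given, readout overlaps actives, possibly toxicity-flagged; inactive = the rest, including those meeting only one limit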
#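 Read-out basis: % PE-positive cells; Test system: HUVEC primary endothelial cells; Technique: immunofluorescence imaging; Dosing: single-point compound dose.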
# Yeast UUG start – modulators of start codon recognition fidelity in yeast; AID 602363; hit rate 0.13% among 350,000; activity score, % at 18.7 µM; S. cerevisiae UUG-firefly luciferase reporter, luminescence/redox ratio;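 active = replicate mean at a twofold rise or more, about +100% in these data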;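 note: firefly luciferase made from a UUG start codon reports start codon fidelity; reporter light over untreated wells divided by growth signal over untreated wells; some hits fall short of that in this replicate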
# RAD54 inh – blocks human RAD54 Holliday junction branch migration. Q92698. FAM/BHQ fluorescence. inhibition, % at 10.4 µM. 0.14% of 360,000 active;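 active = mean normalized replicate activity at least 40 and at least half of replicates scoring 40 or more; inconclusive = only one of the two criteria met; inactive = mean below 40 and under half of replicates reaching 40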;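 also: 0% = median of neutral control wells and 100% = median of positive control wells; inhibitors cause a drop in the FAM fluorescence signal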
# AF4-AF9 inh – MLL-AF4/AF9 protein interaction inhibition; inhibition, % at 10 µM; 0.47% of 350,000 active; AlphaScreen, biotin-AF4 peptide binding to FLAG-AF9; AID 651704;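 active = every replicate reaching a set inhibition limit, whatever the replicate mean, cut at about 25% in these data; inconclusive = mean inhibition reaches that limit but some replicates miss it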;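 also: 0% = plate neutral control median and 100% = total signal loss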
# RAD52 inh – blocks human RAD52 DNA annealing | P43351 | 0.46% of 360,000 active | inhibition, % at 18.7 µM | recombinant RAD52 DNA annealing, FRET fluorescence;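 active = every replicate showing at least 50% inhibition; inconclusive = mean inhibition at least 50% but not in every replicate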
# Numbers without * were called inactive; ? = inconclusive; . = no result. Most compounds without a hit are left out; they make up all but 1.8% or so of the library.
entry	Compound	SIRT5 block	E-selectin induc	Yeast UUG start
1	C[C@@H]1CN([C@H](C)CO)C(=O)c2cccc(NC(=O)C3CC3)c2O[C@H]1CN(C)C	5.0	-7.9	-17.7
2	CCc1ccc(NS(=O)(=O)c2ccc3c(c2)oc(=O)n3C)cc1	-3.5	11.4	-6.3
3	Cc1ccc(NS(=O)(=O)c2ccc3c(c2)oc(=O)n3C)cc1	-2.5	.	-20.5
4	Cc1ccc2c(c1)C(c1ccncc1)=NNC(c1ccccc1)=N2	0.5	.	-20.6
5	c1ccc(C2=Nc3c(ccc4ccccc34)C(c3ccncc3)=NN2)cc1	-1.6	-0.1	.
6	O=C(CCN1C(=O)S/C(=C/c2ccccc2)C1=O)Nc1ccc(C(=O)O)c(O)c1	3.8	.	2.6
7	O=C(CCCN1C(=O)C(=Cc2ccc3c(c2)OCO3)SC1=S)Nc1ccc(C(=O)O)c(O)c1	34.4*	-0.3	-1.6
8	O=C(CCCN1C(=O)/C(=C/c2ccccc2)SC1=S)Nc1ccc(C(=O)O)c(O)c1	46.4*	.	-6.0
9	COc1ccc(/C=C2\SC(=S)N(CCCC(=O)Nc3cccc(C(=O)O)c3)C2=O)cc1OC	8.5	-0.2	-15.6
10	COc1ccc(C=C2SC(=S)N(CCCC(=O)Nc3ccc(C(=O)O)c(O)c3)C2=O)cc1OC	53.2*	0.0	-20.1
11	C[C@@H]1CN([C@@H](C)CO)C(=O)c2cc(-c3cccc(F)c3)cnc2O[C@H]1CN(C)C(=O)C1CCCCC1	1.8	-0.2	16.7
12	Cc1ccccc1S(=O)(=O)NCC[C@H]1CC[C@@H](NC(=O)C2CCOCC2)[C@H](CO)O1	0.6	-0.2	-2.0

entry	RAD54 inh	AF4-AF9 inh	RAD52 inh
1	2.2	2.4	8.5
2	-12.0	34.9*	-7.1
3	-3.9	2.7	-14.8
4	11.2	-0.5	-5.7
5	.	34.4*	-7.2
6	3.3	7.5	-11.7
7	7.7	10.7	-23.2
8	0.1	4.9	-5.2
9	-11.2	3.4	-105.4
10	-8.0	7.6	-190.9
11	-7.4	0.0	6.1
12	-10.9	-3.3	-3.1

# (next part)
entry	Compound	SIRT5 block	E-selectin induc	Yeast UUG start
13	CCOC(=O)C1(Cc2cccc(OC)c2)CCN(Cc2ccccc2)CC1	-0.5	32.6*	-6.7
14	CCOC(=O)C1(Cc2cccc(OC)c2)CCCN(Cc2cc(C(C)C)n[nH]2)C1 (stereo not given)	-0.1	28.1*	-7.2
15	Cc1noc(C)c1S(=O)(=O)N(C)C[C@@H]1Oc2ccc(NS(=O)(=O)c3ccc(Cl)cc3)cc2C(=O)N([C@H](C)CO)C[C@@H]1C	4.5	-0.2	2.4
16	CO[C@H]1CN(C)C(=O)c2cc(NC(=O)c3ccccc3F)ccc2OC[C@H](C)NC[C@H]1C	-0.8	-0.2	.
17	CO[C@H]1CN(C)C(=O)c2cc(NC(=O)c3ccccc3F)ccc2OC[C@H](C)NC[C@@H]1C	24.6*	0.1	.
18	CO[C@H]1CN(C)C(=O)c2cc(NC(=O)c3ccccc3F)ccc2OC[C@@H](C)NC[C@@H]1C	25.7*	-0.1	.
19	C[C@@H]1CN([C@@H](C)CO)C(=O)c2cccc(NC(=O)C3CC3)c2O[C@@H]1CN(C)C(=O)NC1CCCCC1	2.5	-0.3	-1.9
20	Cc1cccc(C)c1NC(=O)CN(C)C(=O)c1ccccc1SCC(=O)N1CCCC1	16.5*	.	6.1
21	COc1ccc(S(=O)(=O)Nc2ccc3c(c2)C(=O)N([C@@H](C)CO)C[C@@H](C)[C@@H](CN(C)CC2CCCCC2)OCCCC[C@H](C)O3)cc1	.	0.0	27.2
22	C[C@@H]1CN([C@@H](C)CO)C(=O)c2cccc(NC(=O)c3cnccn3)c2O[C@@H]1CN(C)S(=O)(=O)c1cccs1	-3.8	0.0	-7.5
23	COc1ccc(NC(=O)c2cc(S(=O)(=O)N3CCCCC3)c[nH]2)cc1	.	111.1*	7.3
24	O=C(O)c1cccc(-c2ccc(/C=c3/sc4nc5ccccc5n4c3=O)o2)c1	29.6*	.	-20.4

entry	RAD54 inh	AF4-AF9 inh	RAD52 inh
13	2.6	3.2	-10.6
14	-1.0	2.0	-18.4
15	-7.1	2.0	-8.1
16	-0.2	-3.3	0.6
17	3.7	-0.7	16.9
18	3.8	-1.5	6.4
19	-38.6	-3.0	13.1
20	-13.0	-0.1	-7.0
21	9.4	.	.
22	1.3	-0.8	-4.1
23	-4.4	2.1	-29.8
24	-25.3	-4.0	-121.8

# (listing goes on)
entry	Compound	SIRT5 block	E-selectin induc	Yeast UUG start
25	O=C(O)c1ccccc1-c1ccc(C=c2sc3nc4cc(Br)cnc4n3c2=O)o1	29.5*	0.9	7.5
26	CC(C)NC(=O)N(C)C[C@H]1Oc2ccc(NC(=O)Nc3ccc(C(F)(F)F)cc3)cc2C(=O)N([C@@H](C)CO)C[C@H]1C	.	0.9	11.6
27	CN(CC(=O)Nc1ccccc1C(F)(F)F)C(=O)c1ccc(N2C(=O)CCC2=O)cc1	16.6*	2.6	-12.7
28	FC(F)(F)c1ccc(Oc2ccc3ccccc3c2Br)nc1	23.9*	.	.
29	Nc1ccc(N2CCN(c3ccc(Cl)c(Cl)c3)CC2)cc1	-8.4	.	.
30	C/C=C/c1ccc([C@H]2[C@@H](CO)N(Cc3cncnc3)C23CN(C(C)=O)C3)cc1	2.1	0.3	.
31	C[C@H](CO)N1C[C@H](C)[C@H](CN(C)Cc2ccc(C(=O)O)cc2)Oc2ccc(NC(=O)Cc3ccccc3)cc2CC1=O	-0.2	-4.6	-8.0
32	Cc1cc(C)cc(NC2=C(N)C(=O)c3ccccc3C2=O)c1	16.1*	.	-12.4
33	CN(C)CCNc1cccc2sc3ccc(O)cc3c(=O)c12	.	.	.
34	C[C@@H]1CN([C@H](C)CO)C(=O)c2cc(NC(=O)Nc3ccccc3)ccc2O[C@@H](C)CCCCO[C@H]1CN(C)Cc1ccc2c(c1)OCO2	-1.2	0.4	10.5
35	C[C@@H]1CCCCO[C@@H](CN(C)Cc2ccc3c(c2)OCO3)[C@H](C)CN([C@@H](C)CO)C(=O)c2cc(NC(=O)Nc3ccc(C(F)(F)F)cc3)ccc2O1	-1.2	-0.1	-2.5
36	C[C@@H]1CN([C@H](C)CO)C(=O)c2cc(NC(=O)Nc3ccccc3)ccc2O[C@@H](C)CCCCO[C@@H]1CN(C)Cc1ccc2c(c1)OCO2	7.4	-0.2	21.9

entry	RAD54 inh	AF4-AF9 inh	RAD52 inh
25	-53.8	-12.0	-183.3
26	-0.9	3.8	-0.1
27	-0.3	-17.1	-6.5
28	.	-2.1	-8.8
29	.	27.4*	-14.0
30	.	-2.6	-4.8
31	-7.4	-2.4	-5.3
32	-3.3	.	-15.2
33	.	37.7*	-72.2
34	-11.3	18.9	61.4*
35	6.8	2.6	50.5*
36	-6.5	6.7	40.5

# Remaining list, next part
entry	Compound	SIRT5 block	E-selectin induc	Yeast UUG start
37	C[C@H]1CCCCO[C@H](CN(C)Cc2ccc3c(c2)OCO3)[C@@H](C)CN([C@@H](C)CO)C(=O)c2cc(NC(=O)Nc3ccccc3)ccc2O1	0.0	0.2	7.7
38	COc1ccc(CN(C)C[C@@H]2OCCCC[C@H](C)Oc3ccc(NC(=O)Nc4ccc5c(c4)OCO5)cc3C(=O)N([C@@H](C)CO)C[C@@H]2C)cc1	2.5	0.3	2.8
39	COc1ccc(CN(C)C[C@H]2OCCCC[C@@H](C)Oc3ccc(NC(=O)Nc4ccc5c(c4)OCO5)cc3C(=O)N([C@@H](C)CO)C[C@@H]2C)cc1	-1.7	?	11.7
40	C[C@H]1CN([C@@H](C)CO)C(=O)c2cc(C3=CCCCC3)cnc2O[C@@H]1CN(C)C(=O)c1cccnc1	0.2	0.2	21.1

entry	RAD54 inh	AF4-AF9 inh	RAD52 inh
37	-7.4	12.3	56.3*
38	8.6	22.2	34.1
39	3.8	27.7*	28.9
40	3.1	-3.0	1.0

# Part of the list above, limited to SIRT5 block, AF4-AF9 inh and RAD54 inh.
item	molecule	SIRT5 block	AF4-AF9 inh	RAD54 inh
37	C[C@H]1CCCCO[C@H](CN(C)Cc2ccc3c(c2)OCO3)[C@@H](C)CN([C@@H](C)CO)C(=O)c2cc(NC(=O)Nc3ccccc3)ccc2O1	0.0	12.3	-7.4
39	COc1ccc(CN(C)C[C@H]2OCCCC[C@@H](C)Oc3ccc(NC(=O)Nc4ccc5c(c4)OCO5)cc3C(=O)N([C@@H](C)CO)C[C@@H]2C)cc1	-1.7	27.7*	3.8
40	C[C@H]1CN([C@@H](C)CO)C(=O)c2cc(C3=CCCCC3)cnc2O[C@@H]1CN(C)C(=O)c1cccnc1	0.2	-3.0	3.1
38	COc1ccc(CN(C)C[C@@H]2OCCCC[C@H](C)Oc3ccc(NC(=O)Nc4ccc5c(c4)OCO5)cc3C(=O)N([C@@H](C)CO)C[C@@H]2C)cc1	2.5	22.2	8.6

# Screens from PubChem.
